Data published in US20140322242A1, “MATERIALS AND METHODS FOR THE PREVENTION AND TREATMENT OF CANCER” (Icahn School of Medicine at Mount Sinai, priority 2010, published 2014).

Protein sequences, listed by entry. Tags and fused reporters are not part of them. Lines headed by an entry give the natural chain unless they say otherwise; changes in a name come on top.
UniProt P12657: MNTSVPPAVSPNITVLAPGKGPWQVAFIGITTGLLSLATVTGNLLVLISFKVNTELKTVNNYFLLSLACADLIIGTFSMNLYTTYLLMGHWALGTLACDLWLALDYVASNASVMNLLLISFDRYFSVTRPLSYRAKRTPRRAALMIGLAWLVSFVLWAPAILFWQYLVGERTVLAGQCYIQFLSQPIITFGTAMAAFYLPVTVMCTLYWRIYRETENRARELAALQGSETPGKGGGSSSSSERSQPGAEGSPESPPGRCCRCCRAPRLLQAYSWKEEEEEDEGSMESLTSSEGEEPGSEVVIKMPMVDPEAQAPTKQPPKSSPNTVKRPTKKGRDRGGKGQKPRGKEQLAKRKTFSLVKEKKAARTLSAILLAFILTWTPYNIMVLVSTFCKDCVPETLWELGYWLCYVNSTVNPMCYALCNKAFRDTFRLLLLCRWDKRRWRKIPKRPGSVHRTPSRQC

Biological target: stromal Chrm1 (Mus musculus, UniProt P12657)
Conditions: carbachol; harvested at week 10
Procedure: A second cycle was administered at week four and mice were sacrificed one week later (five weeks after graft). For cholinergic experiments using the nu/nu Chrm1^tm1Stl+/+ and nu/nu Chrm1^tm1Stl−/− animals, mice were sacrificed at week six post-graft. For the survival study, grafted mice were treated as described hereinabove from week 4, every two weeks for up to 25 weeks or until death. Disease progression was monitored by bioluminescence scanner. […] One week later, mice received a second round of treatment and were then sacrificed at month four.

C[N+](C)(C)CCOC(N)=O.[Cl-] [carbachol, carbamoylcholine chloride]
tumor behavior (basement membrane disruption, tumor epithelial cell proliferation): switched the tumor behavior to an invading phenotype
